This note sets out measurements from PubChem BioAssay AID2177 (The Scripps Research Institute Molecular Screening Center, 2009).

The chains behind the UniProt entries cited, without tags or fusion partners. Where a name states a change or a piece, a line headed by the entry shows the natural chain unless it says otherwise.
UniProt O95372: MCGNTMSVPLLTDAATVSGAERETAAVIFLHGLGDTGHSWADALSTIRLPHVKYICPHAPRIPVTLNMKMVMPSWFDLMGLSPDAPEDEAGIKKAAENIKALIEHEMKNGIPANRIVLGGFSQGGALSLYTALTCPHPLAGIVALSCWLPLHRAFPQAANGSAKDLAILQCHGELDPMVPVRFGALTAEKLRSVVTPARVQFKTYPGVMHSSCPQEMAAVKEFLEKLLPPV

Only a part is listed here, and it is no random draw. The source made the active and inactive calls.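 How the source made its calls: active means inhibition above the screen-wide mean plus 3 SD, limit set per campaign (cut at about 26% in these data); inactive means the rest.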

Broadly, the inhibition is the relative decrease from the control value, in per cent.

This assay addresses Acyl-protein thioesterase 2 (Homo sapiens) (UniProt O95372). The assay is described as follows: inhibition of human lysophospholipase 2 – biochemical, fluorescence polarization, FP-Rh probe ABPP, counter-screen for PME1 inhibitor project, primary screen (AID 2177).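 Further: 0% = LYPLA2 with DMSO and 100% = wells lacking LYPLA2 enzyme.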 The following applies: recombinant LYPLA2, FP-Rh probe fluorescence polarization; at 5.9 µM; hits give high values. (In general: Fluorescence polarisation rises when a labelled molecule tumbles more slowly, as on binding a larger partner.)
As for `COc1ccc(N/C(=N/P(=O)(N2CCOCC2)N2CCOCC2)N2CCOCC2)cc1`, the inhibition was inactive: 4.17%. The result for `COc1ccc2nc(NP(=O)(c3ccccc3)c3ccccc3)sc2c1` reads inactive: -4.18%; that for `COc1cc(I)ccc1[As](=O)(O)O`, inactive: -2.12%; that for `Cc1c2c(nc3ccccc13)SC(C(Cl)Cl)C2` (stereo not drawn), inactive: -2.6%. The result for `O=C(OC1CN2CCC1CC2)C12CC3CC(CC(C3)C1)C2` (stereo not drawn) reads inactive: 2.55%.

In the case of `Cc1cc(=O)[nH]c(N[N+](=O)[O-])n1`, the inhibition was inactive: 2.08%. Next, `CC(C)NC(=O)NP(=O)(Oc1ccccc1)Oc1ccccc1`: inactive: 0.54%; `CCN(CC)C(=S)SC(NC=O)C(Cl)(Cl)Cl` (stereo not drawn): inactive: 0.18%. Regarding `O=[N+]([O-])c1cc([N+](=O)[O-])c(-c2ccn[nH]2)s1`, the inhibition was inactive: -1.56%. Turning to `ClCCSc1nnc(-c2cccnc2)o1`, the inhibition is inactive: 4.79%. Next, `CC(C)c1ccc(OP(=O)(Nc2ccccn2)Oc2ccccc2F)cc1` (stereo not drawn): inactive: 1.18%; `Cc1ccc(OP(=O)(Nc2ccc([N+](=O)[O-])cn2)Oc2ccc(C)cc2)cc1`: inactive: 6.49%; `Cc1ccc2nc3c(c(C)c2c1)CC(C(Cl)Cl)S3` (stereo not drawn): inactive: 0.57%. Next, `C[As](=O)(O)c1cccc(C(=O)O)c1`: inactive: 8.29%. The result for `O=[As](O)(c1ccc(O)cc1)c1ccccc1O` reads inactive: -1.05%. As for `COc1cc(C(=O)NCC2(N3CCOCC3)CCCCC2)ccc1OCC(C)C`, the inhibition is inactive: 7.79%. The result for `O=P(Nc1ccccn1)(c1cccc2ccccc12)c1cccc2ccccc12` reads inactive: -2.08%; that for `Cc1cc(SC(NC=O)C(Cl)(Cl)Cl)ncn1` (stereo not drawn), inactive: -1.77%; that for `CCOC(=O)Nc1cccc([As](=O)(O)O)c1`, inactive: 5.97%. Next, `Cc1cc(SC(NC(=O)c2ccccc2)C(Cl)(Cl)Cl)nc(C(C)C)n1` (stereo not drawn): inactive: -2.18%; `CCOC(=O)Nc1ccc([As](=O)(O)O)c(O)c1`: inactive: 1.26%; `CCC(C)N(CC(C)C)C(=S)SC(NC(C)=O)C(Cl)(Cl)Cl` (stereo not drawn): inactive: 5.53%.

`O=C(OC1CN2CCC1CC2)c1cccc([N+](=O)[O-])c1` (stereo not drawn): the inhibition was inactive: -0.75%. As for `CCOC(=O)c1ccc(NC(=O)C(C)(CCl)SC)cc1` (stereo not drawn), the inhibition is inactive: -4.66%. The result for `O=C(COc1ccccc1)OC1CN2CCC1CC2` (stereo not drawn) reads inactive: 0.79%; that for `O=C(Nc1ccncc1[N+](=O)[O-])c1ccc([N+](=O)[O-])cc1[N+](=O)[O-]`, inactive: 6.17%; that for `COP1(=S)c2c(C)nn(CCC#N)c2N=C(c2ccc(F)cc2)N1C` (stereo not drawn), inactive: -0.59%. The result for `CC(C)/C=N\N=C(\N)N[N+](=O)[O-]` reads inactive: 2.63%.
